The record followed here is paper PMC11154460, “Effects of Aqueous Boundary Layers and Paracellular Transport on the Efflux Ratio as a Measure of Active Transport Across Cell Layers” (Pharmaceutics, 2024).

Protein sequences, listed by entry. Tags and fused reporters are not part of them.
UniProt P08183, whole entry: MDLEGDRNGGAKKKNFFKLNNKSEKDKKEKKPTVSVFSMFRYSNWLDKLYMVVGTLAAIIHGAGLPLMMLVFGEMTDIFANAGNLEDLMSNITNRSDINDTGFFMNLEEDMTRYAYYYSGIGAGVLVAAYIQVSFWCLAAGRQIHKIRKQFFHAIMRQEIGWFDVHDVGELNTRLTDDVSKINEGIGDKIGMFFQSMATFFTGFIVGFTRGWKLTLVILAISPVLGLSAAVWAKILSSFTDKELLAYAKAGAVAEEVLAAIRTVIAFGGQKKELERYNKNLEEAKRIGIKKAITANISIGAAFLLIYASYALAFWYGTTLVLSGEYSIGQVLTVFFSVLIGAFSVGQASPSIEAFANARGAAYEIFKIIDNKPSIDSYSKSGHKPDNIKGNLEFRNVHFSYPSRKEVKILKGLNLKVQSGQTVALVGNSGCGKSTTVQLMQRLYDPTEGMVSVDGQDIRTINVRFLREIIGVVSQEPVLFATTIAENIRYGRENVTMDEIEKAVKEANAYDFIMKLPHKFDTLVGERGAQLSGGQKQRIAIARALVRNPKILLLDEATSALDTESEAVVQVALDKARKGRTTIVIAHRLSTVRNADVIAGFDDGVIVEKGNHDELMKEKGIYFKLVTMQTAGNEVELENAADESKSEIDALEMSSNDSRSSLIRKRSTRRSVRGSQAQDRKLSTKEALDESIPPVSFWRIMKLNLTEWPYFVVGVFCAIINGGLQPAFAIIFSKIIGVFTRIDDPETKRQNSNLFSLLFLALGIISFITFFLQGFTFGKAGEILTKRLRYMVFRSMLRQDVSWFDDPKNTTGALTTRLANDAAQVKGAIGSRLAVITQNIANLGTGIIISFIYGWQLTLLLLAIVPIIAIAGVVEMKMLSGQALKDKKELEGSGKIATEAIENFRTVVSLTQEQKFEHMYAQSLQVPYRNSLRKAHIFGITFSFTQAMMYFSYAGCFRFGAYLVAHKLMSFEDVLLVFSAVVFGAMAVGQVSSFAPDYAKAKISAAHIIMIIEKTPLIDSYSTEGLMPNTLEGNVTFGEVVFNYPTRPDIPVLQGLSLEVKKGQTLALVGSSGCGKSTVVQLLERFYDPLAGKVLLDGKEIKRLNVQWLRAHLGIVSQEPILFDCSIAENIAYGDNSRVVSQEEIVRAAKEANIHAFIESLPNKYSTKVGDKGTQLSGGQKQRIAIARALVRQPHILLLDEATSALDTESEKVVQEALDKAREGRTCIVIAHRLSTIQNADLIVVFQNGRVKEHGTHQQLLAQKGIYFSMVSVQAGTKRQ

The structures appear in SMILES notation.

The target of the data set is human P-gp (Homo sapiens, UniProt P08183). As to conditions: MDCK-MDR1, pH 7.4.

In the case of `C=C[C@H]1C[N@@]2CC[C@H]1C[C@@H]2[C@@H](O)c1ccnc2ccc(OC)cc12` [Quinidine, quinidine], the “Papp,A→B” value is listed as 12.4 ± 0.07 (cm/s) ×10^−6.
